In publication PMC11121837, “Impact of Nitric Oxide-Release Kinetics on Antifungal Activity” (Journal of Fungi, 2024):

What was measured:
[1] = tested on: A. fumigatus (ATCC 1022) spores; conditions: NO donor (24 h pretreatment of spores) then butenafine
C. albicans (MYA-2876) = assay: Confocal microscopy; type: cell-based, Candida albicans; conditions: 5× MIC, 24 h

SMILES | checkerboard classification [1] | ∑FIC [1] | intracellular NO (DAF-2 DA fluorescence) (C. albicans (MYA-2876)) | propidium iodide fluorescence (cell death) (C. albicans (MYA-2876); relative to control sample) | hyphae formation (calcofluor white staining) (C. albicans (MYA-2876); relative to controls)
NCCN(CCN)/[N+]([O-])=N/O [DETA/NO, diethylenetriamine/NO] | I (indifferent (I)) | ≥ 1 | – | – | –
NCCCNCCCCN(CCCN)/[N+]([O-])=N/O [SPER/NO, spermine/NO] | – | – | increased NO levels within treated fungi | visual increase in PI fluorescence | marked decrease in hyphae formation
